# Reference: article PMC6131351, “Pharmacological difference between degrader and inhibitor against oncogenic BCR-ABL kinase” (Scientific Reports, 2018)
# System: Jurkat cells
# Assay: WST cell growth inhibition, Jurkat (BCR-ABL negative)
# Format: cell-based
# Conditions: Homo sapiens, 48 h, WST assay, means ± SD (n = 3)
smiles,measurement,value
"Cc1nc(Nc2ncc(C(=O)Nc3c(C)cccc3Cl)s2)cc(N2CCN(CCO)CC2)n1 [Dasatinib, dasatinib, reference compound]",IC50,6.79 ± 1.49 µM
